The values that follow are results of earlier work, collected in patent US10272045B2 (priority 2015, dated 2019).

The conditions of this series: APL patients, metabolites; cited from earlier work.

As to `C[As](=O)(O)O`, the “mean estimated terminal elimination half-life” value is 32 h.
